# Test results: patent publication US5883097A, “Soluble azole antifungal salt” (Schering Corporation, priority 1998, dated 1999)
# Tested on: dermatophytes, T. rubrum, T. mentagrophytes, and T. tonsurans
# Assay: In vitro antifungal activity (MIC/MFC) against dermatophytes
# Conditions: N=6, after 48 or 78 hours
structure (smiles),measurement,value
"CCC(C(C)O)n1ncn(-c2ccc(N3CCN(c4ccc(OCC5COC(Cn6cncn6)(c6ccc(F)cc6F)C5)cc4)CC3)cc2)c1=O [compound of formula II, -(2 R-cis)-4-[4-[4-[4-[[-5-(2,4-Difluorophenyl)-tetrahydro-5-(1 H-1,2,4-triazol-1-ylmethyl)furan-3-yl]methoxy]phenyl]-1-piperazinyl]phenyl]-2-4-dihydro-2-[(1 S)-ethyl-2(S)-hydroxypropyl]-3 H-1,2,4-triazol-3-one]","geometric mean MICs and MFCs compared to fluconazole, dermatophytes",superior antifungal activity
